Experimental findings from publication PMC6359543, “Efficacy of Azatyrosine-Phenylbutyric Hydroxamides, a Histone Deacetylase Inhibitor, on Chemotherapy-Induced Gastrointestinal Mucositis” (International Journal of Molecular Sciences, 2019) are described below.

For this data set, the system named is male ICR mice. Briefly: Micronucleus test. The following applies: Day 1; Cyclophosphamide 200 mg/kg.

For the compound `O=P1(N(CCCl)CCCl)NCCCO1` (stereo not shown) [Cyclophosphamide], the “Number of Micronuclei (‰)” value is 4.73±037 ‰.
